This passage reports inhibition results from PubChem BioAssay AID868 (SRMLSC, 2007).

This is a selection; strong and weak results do not stand in their true shares. The source made the active and inactive calls.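 How the source made its calls: active means inhibition above a set limit, 3 SD over mean compound inhibition (cut at about 8.4% in these data); inactive means the rest.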

As a reminder, the inhibition is the change of the read-out against control, counted positive when it falls.

A short description of the assay: RAM signaling blockers in budding yeast – dse1pr::URA3 reporter, 5-FOA selection, primary screen (AID 868).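 Further: 0% = DMSO-only wells with no growth and 100% = 10 µM 1-NA-PP1 full growth; inhibition rescues growth on 5-FOA so higher OD means more RAM inhibition.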 Particulars: S. cerevisiae dse1pr::URA3 reporter, 5-FOA growth OD615, 2 d; at 50 µM; hits give high values; analog-sensitive cbk1-as2 kinase mutant strain.
As to `O=P(Nc1ccccn1)(c1ccc(Br)cc1)c1ccc(Br)cc1`, the inhibition was inactive: 0%.

In the case of `CC(=O)NC(SC(=S)N(C)C)C(Cl)(Cl)Cl` (stereo not drawn), the inhibition was inactive: -0.93%.

As for `C(Cc1nn[nH]n1)Cc1nn[nH]n1`, the inhibition was inactive: 1.6%.

Regarding `O=C(OC1CN2CCC1CC2)c1cccc(Cl)c1` (stereo not drawn), the inhibition is inactive: -0.39%.

Take `O=P(Nc1nccs1)(c1ccccc1)c1ccccc1`: the inhibition was inactive: 0.89%.

On to `CC(C)C(=O)NC(Sc1ccccc1)C(Cl)(Cl)Cl` (stereo not drawn), for which the inhibition is inactive: 0.99%.

Regarding `c1nnnn1CCn1cnnn1`, the inhibition is inactive: -0.55%.

For `CCOc1ccc(C2=NCC(CBr)S2)cc1` (stereo not drawn), the inhibition was inactive: 2.6%.

Turning to `O=P1(Nc2nc3ccc(Cl)cc3s2)COc2ccccc2O1` (stereo not drawn), the inhibition is inactive: 1.62%.

With `CC(C)(C)C(=O)NC(Sc1ccccc1)C(Cl)(Cl)Cl` (stereo not drawn), the inhibition is inactive: 0.64%.

For the compound `CC(=O)Nc1ccc(Oc2c([N+](=O)[O-])cc([N+](=O)[O-])cc2[N+](=O)[O-])cc1`, the inhibition is inactive: 1.89%.

For `O=C(NC1CCS(=O)(=O)C1)NP(=S)(Oc1ccccc1)Oc1ccccc1` (stereo not drawn), the inhibition is inactive: 1.21%.

Take `CCNC(=S)/N=C(\N)N[N+](=O)[O-]`: the inhibition is inactive: 0.25%.

Regarding `CCOC(=O)NC(Sc1ccccc1)C(Cl)(Cl)Cl` (stereo not drawn), the inhibition was inactive: -0.52%.

Take `c1ccc(-c2nn[nH]n2)c(-c2nn[nH]n2)c1`: the inhibition is inactive: 0.37%.

As for `Cc1ccc(OP(=O)(Nc2ccccn2)Oc2ccc(C)cc2)cc1`, the inhibition is inactive: -0.68%.

Take `CC(=O)NC(SC(=S)N(CC(C)C)CC(C)C)C(Cl)(Cl)Cl` (stereo not drawn): the inhibition was inactive: 0%.

Consider `COC(=O)c1cc2c(s1)N=C(c1ccccc1)N(C)P2(=O)N1CCOCC1` (stereo not drawn), for which the inhibition is inactive: -0.13%.

On to `CCC(=O)N1C2C3N(C(=O)CC)C1C1N(C(=O)CC)C(C(N1C(=O)CC)N3C(=O)CC)N2C(=O)CC`, for which the inhibition was inactive: -0.79%.

Turning to `O=c1c2cc([N+](=O)[O-])ccc2[nH]c2c([N+](=O)[O-])cc([N+](=O)[O-])cc12`, the inhibition is inactive: 2.88%.

`Cc1cc(SC(NC(=O)c2ccc(F)cc2)C(Cl)(Cl)Cl)ncn1` (stereo not drawn): the inhibition was inactive: 2.65%.

`CCOP(=O)(Nc1ccccc1)OCC`: the inhibition was inactive: 1.04%.

For `CCN(N=Nc1nonc1N)c1nonc1N`, the inhibition was inactive: 0.39%.

For `NC(=O)c1cc([N+](=O)[O-])cc([N+](=O)[O-])c1N`, the inhibition is inactive: -0.62%.

In the case of `Cc1ccc(N/C(=N/P(=O)(N2CCOCC2)N2CCOCC2)N2CCOCC2)cc1`, the inhibition is inactive: 0.88%.

For the compound `COc1ccccc1OP(=O)(Nc1ccc(C)cn1)Oc1ccccc1OC`, the inhibition was inactive: 0.12%.

In the case of `CN1CCCC(OC(=O)C(c2ccccc2)c2ccccc2)C1` (stereo not drawn), the inhibition was inactive: -0.7%.

Turning to `Clc1ccc(Cl)c(NC2=NCC(CBr)S2)c1` (stereo not drawn), the inhibition is inactive: 3.29%.

In the case of `CC(C)CC(=O)NC(Sc1ccc(Cl)cc1)C(Cl)(Cl)Cl` (stereo not drawn), the inhibition was inactive: 1.4%.

For the compound `O=C(NC(Sc1ccncn1)C(Cl)(Cl)Cl)c1ccccc1` (stereo not drawn), the inhibition is inactive: 0.69%.

On to `Cc1c2non([O-])c-2c(C)[n+](=O)[n+]1[O-]`, for which the inhibition was inactive: -1.72%.

As for `Oc1ccccc1CNc1ccccn1`, the inhibition is inactive: 0.91%.

Take `COc1ccc(C2=NCC(CBr)S2)cc1` (stereo not drawn): the inhibition was inactive: 0.83%.

Take `CC(=O)N1C2C3N(C(C)=O)C1C1N(C(C)=O)C(C(N1C(C)=O)N3C(C)=O)N2C(C)=O`: the inhibition was inactive: 3.15%.

Regarding `O=[N+]([O-])c1cccc2n[nH]nc12`, the inhibition was inactive: -0.22%.

In the case of `O=[N+]([O-])c1cc([N+](=O)[O-])c(CCNc2ccccc2)c([N+](=O)[O-])c1`, the inhibition was inactive: 3%.

As to `CCc1nc2c(n1)c1c(non1O)c1c2no[n+]1[O-]`, the inhibition is inactive: 0.93%.

Take `Cc1ccc(NP(=O)(Oc2ccccc2)Oc2ccccc2)nc1`: the inhibition is inactive: 1.94%.

With `CCN(/C(=N/P(=O)(N1CCOCC1)N1CCOCC1)N1CCOCC1)c1ccc(OC)cc1`, the inhibition is inactive: 1.46%.

`CN(C)C(=O)OCCc1n(C)cc[n+]1C`: the inhibition is inactive: 1.57%.

On to `CC(C)=N/N=C(\N)N[N+](=O)[O-]`, for which the inhibition is inactive: 0.92%.

As to `CC1CCN(C(=O)Oc2c(Cl)cc(Cl)c3cccnc23)CC1`, the inhibition is inactive: -1.86%.

As to `O=[N+]([O-])c1ncn(CCn2ncnc2[N+](=O)[O-])n1`, the inhibition is inactive: 1.83%.

Consider `Cc1cc(SC(NC(=O)c2ccccc2)C(Cl)(Cl)Cl)nc(C(C)C)n1` (stereo not drawn), for which the inhibition was inactive: 0.24%.

Take `Cc1cc(SC(NC=O)C(Cl)(Cl)Cl)ncn1` (stereo not drawn): the inhibition is inactive: 0.49%.

For `O=P(Nc1ccccn1)(c1cccc2ccccc12)c1cccc2ccccc12`, the inhibition was inactive: 0.38%.

In the case of `COP1(=S)c2c(C)nn(CCC#N)c2N=C(c2ccc(F)cc2)N1C` (stereo not drawn), the inhibition is inactive: 0.88%.

On to `O=C(COc1ccccc1)OC1CN2CCC1CC2` (stereo not drawn), for which the inhibition was inactive: 0.8%.

Turning to `CCC(C)N(CC(C)C)C(=S)SC(NC(C)=O)C(Cl)(Cl)Cl` (stereo not drawn), the inhibition is inactive: 0.49%.

For `Cc1cc(=O)[nH]c(N[N+](=O)[O-])n1`, the inhibition is inactive: -0.13%.

Turning to `O=C(OC1CN2CCC1CC2)C12CC3CC(CC(C3)C1)C2` (stereo not drawn), the inhibition was inactive: 0.55%.

For `Cc1c2c(nc3ccccc13)SC(C(Cl)Cl)C2` (stereo not drawn), the inhibition was inactive: -0.62%.

For the compound `COc1ccc2nc(NP(=O)(c3ccccc3)c3ccccc3)sc2c1`, the inhibition is inactive: 1.7%.

As for `COc1ccc(N/C(=N/P(=O)(N2CCOCC2)N2CCOCC2)N2CCOCC2)cc1`, the inhibition is inactive: 0.28%.

Take `Cc1ccc2nc3c(c(C)c2c1)CC(C(Cl)Cl)S3` (stereo not drawn): the inhibition was inactive: 1.45%.

With `ClCCSc1nnc(-c2cccnc2)o1`, the inhibition is inactive: 0.25%.

Turning to `O=[N+]([O-])c1cc([N+](=O)[O-])c(-c2ccn[nH]2)s1`, the inhibition was inactive: -1.25%.

As for `CC(C)NC(=O)NP(=O)(Oc1ccccc1)Oc1ccccc1`, the inhibition is inactive: 3.52%.

For `CCN(CC)C(=S)SC(NC=O)C(Cl)(Cl)Cl` (stereo not drawn), the inhibition was inactive: 0.26%.

Regarding `O=P(Nc1nccs1)(Oc1ccccc1)Oc1ccccc1`, the inhibition is inactive: 1.38%.

As to `O=P(Nc1nccs1)(c1ccccc1)c1nc2ccccc2s1` (stereo not drawn), the inhibition is inactive: -0.11%.

On to `CCOP1(=S)c2c(C)nn(CCC#N)c2N=C(c2ccccc2F)N1C` (stereo not drawn), for which the inhibition is inactive: 0.88%.

In the case of `O=[N+]([O-])c1ccc2c(c1)nnn2O`, the inhibition was inactive: -0.88%.

Consider `CCOP1(=S)c2c(C)nn(CCC#N)c2N=C(c2ccc(F)cc2)N1C` (stereo not drawn), for which the inhibition was inactive: 1.67%.

For `COc1cc(C(=O)NCC2(N3CCOCC3)CCCCC2)cc(Cl)c1OC(C)C`, the inhibition is inactive: 0.83%.

Regarding `Cc1cccc(OCC(=O)OC2CN3CCC2CC3)c1` (stereo not drawn), the inhibition is inactive: 2.31%.

On to `Cc1ccc(NCCc2c([N+](=O)[O-])cc([N+](=O)[O-])cc2[N+](=O)[O-])cc1`, for which the inhibition is inactive: 6.93%.

Consider `CCOP(=O)(Nc1cccc2ccccc12)OCC`, for which the inhibition is inactive: 2.95%.

Take `COc1cc(C2NCCC3(OCCO3)C2(C)C)cc(OC)c1OC` (stereo not drawn): the inhibition is inactive: 1.03%.

With `O=P1(Nc2ccccn2)COc2ccccc2OC1`, the inhibition was inactive: 1.01%.

Regarding `Clc1n[nH]nc1-c1nn[nH][15n]1`, the inhibition was inactive: 0.35%.

Turning to `CC(C)/C=N\N=C(\N)N[N+](=O)[O-]`, the inhibition was inactive: 0.91%.

Regarding `CC1CCC(C(C)C)C(OP(=O)(Nc2ccccn2)c2ccccc2)C1` (stereo not drawn), the inhibition was inactive: 0.13%.

In the case of `Cc1nn(-c2ccccc2)c2c1P(=O)(N1CCOCC1)N(C)C(c1ccccc1)=N2` (stereo not drawn), the inhibition is inactive: 1.18%.

Turning to `CN(C)C1(CNC(=O)c2ccc(S(C)(=O)=O)cc2)CCCCC1`, the inhibition is inactive: 1.39%.

Consider `O=P1(Nc2ncccn2)COc2ccccc2OC1`, for which the inhibition was inactive: 1.01%.

In the case of `Cc1ccc(OCC(=O)OC2CN3CCC2CC3)cc1` (stereo not drawn), the inhibition is inactive: 2.64%.

Take `O=P1(Nc2ccc(Br)cn2)COc2ccccc2OC1`: the inhibition is inactive: 0.95%.
